The assay concerns the target Dipeptidyl peptidase 1 (Homo sapiens, UniProt P53634). The experiment in a line: Inhibition of cathepsin C (unknown origin). A digest of the protocol: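 Human recombinant CatC, activated then diluted to 4.4 nM in 25 mM MES, 50 mM NaCl, 5 mM DTT, 0.01% Triton X-100, pH 6.0. Enzyme preincubated with compound 3 h at RT. Gly-Phe-AFC added (100 μM final) and product fluorescence read after 60 min. IC50 from sigmoidal nonlinear regression, mean of at least two experiments.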

Chains of the proteins cited; added tags and fusions are not shown. Residues count along the entry.
UniProt P53634, 395-463 limits assumed: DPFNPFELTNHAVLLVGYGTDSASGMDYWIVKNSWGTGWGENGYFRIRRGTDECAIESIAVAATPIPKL
UniProt P53634, 25-134 limits assumed: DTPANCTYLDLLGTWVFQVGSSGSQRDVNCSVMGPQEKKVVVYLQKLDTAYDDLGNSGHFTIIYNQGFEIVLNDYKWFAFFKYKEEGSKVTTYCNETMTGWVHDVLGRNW
UniProt P53634, 231-394 limits assumed: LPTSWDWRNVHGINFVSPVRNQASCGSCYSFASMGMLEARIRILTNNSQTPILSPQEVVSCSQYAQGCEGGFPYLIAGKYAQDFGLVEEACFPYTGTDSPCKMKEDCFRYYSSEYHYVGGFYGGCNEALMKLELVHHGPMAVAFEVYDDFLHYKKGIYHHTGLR

pIC50: −log10 of the molar value.

A word on the pIC50: it is the IC50 on a negative log10 scale, so that one unit is a factor of ten. `N#Cc1ccc(-c2ccc(C[C@@H](C#N)NC(=O)C3(N)CCOCC3)cc2)cc1` had a pIC50 of 8.54.
